The results in this text go back to ChEMBL document CHEMBL1817631, “Synthesis and characterization of tritylthioethanamine derivatives with potent KSP inhibitory activity” (Bioorg Med Chem, 2011).

Sequences of proteins named here, by UniProt entry; tags and fusion partners are left off. A change or cut given only in a name is not applied to a line headed by its entry.
UniProt Q02224: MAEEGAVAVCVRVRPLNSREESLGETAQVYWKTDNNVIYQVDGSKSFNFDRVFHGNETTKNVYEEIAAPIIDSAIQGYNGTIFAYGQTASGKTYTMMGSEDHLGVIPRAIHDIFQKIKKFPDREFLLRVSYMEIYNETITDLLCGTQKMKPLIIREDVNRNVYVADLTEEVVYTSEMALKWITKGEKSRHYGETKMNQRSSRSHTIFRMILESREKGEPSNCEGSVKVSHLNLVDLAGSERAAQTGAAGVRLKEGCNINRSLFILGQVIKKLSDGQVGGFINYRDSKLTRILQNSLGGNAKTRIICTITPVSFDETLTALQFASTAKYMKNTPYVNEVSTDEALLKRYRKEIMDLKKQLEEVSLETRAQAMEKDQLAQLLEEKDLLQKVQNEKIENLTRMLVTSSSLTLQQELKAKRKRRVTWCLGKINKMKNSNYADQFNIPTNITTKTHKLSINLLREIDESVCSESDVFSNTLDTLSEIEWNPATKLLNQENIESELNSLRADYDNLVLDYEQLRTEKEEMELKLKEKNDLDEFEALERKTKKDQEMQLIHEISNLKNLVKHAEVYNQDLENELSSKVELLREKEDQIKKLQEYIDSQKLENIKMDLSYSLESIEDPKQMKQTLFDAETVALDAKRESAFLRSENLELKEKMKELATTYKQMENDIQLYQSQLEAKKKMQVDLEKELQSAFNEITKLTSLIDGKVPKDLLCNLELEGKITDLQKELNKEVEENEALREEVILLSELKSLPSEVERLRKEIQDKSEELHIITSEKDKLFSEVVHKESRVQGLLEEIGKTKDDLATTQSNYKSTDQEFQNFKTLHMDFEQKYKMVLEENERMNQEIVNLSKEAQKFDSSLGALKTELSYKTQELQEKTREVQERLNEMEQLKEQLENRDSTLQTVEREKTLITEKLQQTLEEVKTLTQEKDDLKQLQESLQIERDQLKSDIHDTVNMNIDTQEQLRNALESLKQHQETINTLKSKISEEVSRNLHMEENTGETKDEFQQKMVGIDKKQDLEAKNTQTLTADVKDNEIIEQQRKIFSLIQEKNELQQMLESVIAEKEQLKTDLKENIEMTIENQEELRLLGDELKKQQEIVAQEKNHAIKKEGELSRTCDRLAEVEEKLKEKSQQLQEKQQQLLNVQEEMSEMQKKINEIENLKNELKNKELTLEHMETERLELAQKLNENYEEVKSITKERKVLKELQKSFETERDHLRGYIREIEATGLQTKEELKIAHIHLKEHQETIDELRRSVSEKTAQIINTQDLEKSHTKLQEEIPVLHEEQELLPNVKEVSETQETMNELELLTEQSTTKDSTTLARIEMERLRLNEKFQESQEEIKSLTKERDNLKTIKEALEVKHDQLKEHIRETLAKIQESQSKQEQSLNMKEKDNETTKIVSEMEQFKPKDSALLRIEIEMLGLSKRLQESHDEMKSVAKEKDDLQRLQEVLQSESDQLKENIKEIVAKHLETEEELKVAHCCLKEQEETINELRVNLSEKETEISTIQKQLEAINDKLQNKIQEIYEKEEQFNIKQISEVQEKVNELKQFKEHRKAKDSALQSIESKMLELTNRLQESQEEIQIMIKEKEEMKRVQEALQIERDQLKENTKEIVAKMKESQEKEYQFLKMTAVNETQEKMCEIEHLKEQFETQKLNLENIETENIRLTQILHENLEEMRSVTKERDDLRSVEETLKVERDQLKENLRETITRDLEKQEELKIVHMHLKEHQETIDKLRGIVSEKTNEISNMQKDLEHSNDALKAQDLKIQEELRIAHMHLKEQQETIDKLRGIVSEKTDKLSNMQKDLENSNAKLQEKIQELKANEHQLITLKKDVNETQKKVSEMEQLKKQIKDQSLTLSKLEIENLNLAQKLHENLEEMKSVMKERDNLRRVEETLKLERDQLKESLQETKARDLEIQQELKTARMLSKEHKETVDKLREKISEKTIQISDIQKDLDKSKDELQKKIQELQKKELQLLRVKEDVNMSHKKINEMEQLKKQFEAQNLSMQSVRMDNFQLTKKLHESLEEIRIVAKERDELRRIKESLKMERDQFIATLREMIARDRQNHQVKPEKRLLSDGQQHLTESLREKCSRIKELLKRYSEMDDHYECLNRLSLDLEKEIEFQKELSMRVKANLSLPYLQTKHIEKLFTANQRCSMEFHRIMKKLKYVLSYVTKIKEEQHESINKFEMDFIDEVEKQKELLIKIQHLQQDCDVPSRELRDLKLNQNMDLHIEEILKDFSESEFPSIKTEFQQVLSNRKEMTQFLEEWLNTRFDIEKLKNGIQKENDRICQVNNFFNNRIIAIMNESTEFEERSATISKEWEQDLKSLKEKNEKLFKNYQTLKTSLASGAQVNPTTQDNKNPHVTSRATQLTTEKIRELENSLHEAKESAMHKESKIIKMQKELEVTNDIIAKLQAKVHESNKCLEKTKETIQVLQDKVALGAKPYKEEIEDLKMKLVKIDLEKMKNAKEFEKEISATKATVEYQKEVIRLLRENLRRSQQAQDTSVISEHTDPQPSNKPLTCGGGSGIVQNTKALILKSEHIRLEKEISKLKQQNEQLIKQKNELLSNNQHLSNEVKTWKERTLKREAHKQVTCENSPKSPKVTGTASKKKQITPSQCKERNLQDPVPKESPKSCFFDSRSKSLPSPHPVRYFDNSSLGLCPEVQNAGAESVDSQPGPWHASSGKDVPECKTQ

Activity calls are given as the source filed them. The calls are words filed in the database; no cut-off is given here.

Experiment [1] has as its system HeLa. The experiment can be described thus: Inhibition of bipolar spindle formation in human HeLa cells at 1 uM. Type of experiment: functional, cell-based.
For experiment [2], the system named is HeLa. The experiment can be described thus: Effect on interphase microtubule organization in human HeLa cells at 1 uM. Type of experiment: functional, cell-based.
For experiment [3], the target named is T1, Kinesin-like protein KIF2C (Homo sapiens) (UniProt Q99661).
T1 sequence (whole entry): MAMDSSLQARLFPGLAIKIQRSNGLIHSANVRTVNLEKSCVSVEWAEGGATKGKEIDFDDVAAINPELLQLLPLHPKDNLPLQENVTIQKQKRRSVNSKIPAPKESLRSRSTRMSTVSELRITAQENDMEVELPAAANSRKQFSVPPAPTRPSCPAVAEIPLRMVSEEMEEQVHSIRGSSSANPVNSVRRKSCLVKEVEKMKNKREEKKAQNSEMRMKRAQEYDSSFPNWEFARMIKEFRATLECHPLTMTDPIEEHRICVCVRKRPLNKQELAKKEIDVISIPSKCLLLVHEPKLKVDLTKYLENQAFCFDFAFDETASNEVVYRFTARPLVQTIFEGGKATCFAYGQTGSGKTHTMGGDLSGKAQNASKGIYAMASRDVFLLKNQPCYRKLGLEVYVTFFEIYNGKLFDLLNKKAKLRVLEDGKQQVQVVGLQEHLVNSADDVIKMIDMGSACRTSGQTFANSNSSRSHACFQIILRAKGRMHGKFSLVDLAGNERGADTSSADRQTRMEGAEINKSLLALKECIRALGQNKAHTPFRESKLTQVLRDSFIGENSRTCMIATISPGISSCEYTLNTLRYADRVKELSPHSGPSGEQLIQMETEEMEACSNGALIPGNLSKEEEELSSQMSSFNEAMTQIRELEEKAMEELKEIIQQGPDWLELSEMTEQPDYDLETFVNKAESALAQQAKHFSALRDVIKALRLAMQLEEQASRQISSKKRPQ
The experiment can be described thus: Inhibition of MACK.

In experiment [4] the target is Centromere-associated protein E (Homo sapiens) (UniProt Q02224). The experiment can be described thus: Inhibition of CENP-E.
The target in experiment [5] is T2, Chromosome-associated kinesin KIF4A (Homo sapiens) (UniProt O95239).
T2 sequence (whole entry): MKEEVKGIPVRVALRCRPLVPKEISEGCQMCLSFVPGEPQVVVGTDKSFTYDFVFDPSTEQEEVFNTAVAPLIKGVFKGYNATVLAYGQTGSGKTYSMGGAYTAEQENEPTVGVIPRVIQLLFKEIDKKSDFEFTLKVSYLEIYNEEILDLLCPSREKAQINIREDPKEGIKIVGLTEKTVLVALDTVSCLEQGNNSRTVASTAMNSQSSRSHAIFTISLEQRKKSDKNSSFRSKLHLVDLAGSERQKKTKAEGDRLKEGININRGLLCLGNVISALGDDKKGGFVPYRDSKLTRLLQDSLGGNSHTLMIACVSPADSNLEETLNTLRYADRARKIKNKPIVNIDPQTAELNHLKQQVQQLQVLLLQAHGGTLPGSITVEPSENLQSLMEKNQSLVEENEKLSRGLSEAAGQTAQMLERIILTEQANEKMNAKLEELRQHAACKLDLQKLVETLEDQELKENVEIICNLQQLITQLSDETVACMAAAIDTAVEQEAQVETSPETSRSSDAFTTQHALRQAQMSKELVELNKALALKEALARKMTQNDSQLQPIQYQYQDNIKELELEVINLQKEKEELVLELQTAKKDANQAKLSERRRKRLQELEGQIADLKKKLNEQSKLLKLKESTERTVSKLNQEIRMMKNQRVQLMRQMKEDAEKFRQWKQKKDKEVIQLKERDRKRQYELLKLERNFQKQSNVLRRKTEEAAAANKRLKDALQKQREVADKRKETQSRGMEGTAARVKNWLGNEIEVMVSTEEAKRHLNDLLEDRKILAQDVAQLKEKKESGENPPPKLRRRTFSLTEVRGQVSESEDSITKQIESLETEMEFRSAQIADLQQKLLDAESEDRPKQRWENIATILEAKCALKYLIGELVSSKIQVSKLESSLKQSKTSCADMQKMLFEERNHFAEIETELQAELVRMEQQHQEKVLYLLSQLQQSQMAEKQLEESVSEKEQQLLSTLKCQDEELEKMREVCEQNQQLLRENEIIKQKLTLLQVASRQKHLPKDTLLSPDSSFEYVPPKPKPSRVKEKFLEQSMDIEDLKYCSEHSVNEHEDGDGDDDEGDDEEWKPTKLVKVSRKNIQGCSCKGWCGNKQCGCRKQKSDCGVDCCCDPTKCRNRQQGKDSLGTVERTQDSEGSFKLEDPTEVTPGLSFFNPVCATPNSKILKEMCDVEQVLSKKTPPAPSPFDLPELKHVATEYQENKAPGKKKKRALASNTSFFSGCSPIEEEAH
The experiment can be described thus: Inhibition of chromokinesin.

The target in experiment [6] is T3, Kinesin-like protein Klp61F (Drosophila melanogaster) (UniProt P46863).
T3 sequence (whole entry): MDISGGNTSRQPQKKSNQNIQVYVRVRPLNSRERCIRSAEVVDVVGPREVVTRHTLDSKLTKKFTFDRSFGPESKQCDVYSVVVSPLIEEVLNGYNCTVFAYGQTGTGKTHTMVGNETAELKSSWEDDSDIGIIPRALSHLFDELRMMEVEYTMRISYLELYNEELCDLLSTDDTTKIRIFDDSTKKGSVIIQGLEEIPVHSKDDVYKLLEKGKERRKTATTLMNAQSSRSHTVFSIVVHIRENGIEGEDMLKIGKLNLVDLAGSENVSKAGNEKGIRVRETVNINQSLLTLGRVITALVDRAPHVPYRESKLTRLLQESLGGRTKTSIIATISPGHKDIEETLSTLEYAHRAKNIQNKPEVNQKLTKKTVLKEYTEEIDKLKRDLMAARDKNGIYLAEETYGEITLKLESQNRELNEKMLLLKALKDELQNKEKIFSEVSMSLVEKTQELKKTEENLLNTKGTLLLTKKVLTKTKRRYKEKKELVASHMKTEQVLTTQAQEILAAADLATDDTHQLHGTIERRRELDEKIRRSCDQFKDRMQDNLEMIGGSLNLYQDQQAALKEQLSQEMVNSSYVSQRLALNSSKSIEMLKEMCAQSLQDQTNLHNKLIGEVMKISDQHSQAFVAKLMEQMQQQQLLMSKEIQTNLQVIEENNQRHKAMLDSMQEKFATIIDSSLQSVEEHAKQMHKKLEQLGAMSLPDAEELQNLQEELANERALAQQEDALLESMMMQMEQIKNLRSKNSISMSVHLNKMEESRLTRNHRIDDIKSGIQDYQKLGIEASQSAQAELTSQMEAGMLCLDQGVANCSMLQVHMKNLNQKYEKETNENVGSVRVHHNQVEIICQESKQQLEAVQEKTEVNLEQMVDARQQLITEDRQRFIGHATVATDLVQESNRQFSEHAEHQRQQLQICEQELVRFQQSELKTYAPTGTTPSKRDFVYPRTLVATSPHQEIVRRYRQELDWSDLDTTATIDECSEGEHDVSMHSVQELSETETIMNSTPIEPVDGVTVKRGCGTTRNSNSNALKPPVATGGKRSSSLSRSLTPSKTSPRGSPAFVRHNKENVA
The experiment can be described thus: Inhibition of Drosophila melanogaster Klp61F in S2 cells at 100 uM up to 7 hrs by immunofluorescence analysis. In kind it is cell-based.

On to `N[C@H](CO)CSC(c1ccccc1)(c1ccccc1)c1ccccc1`, for which, in the experiment with HeLa [1], the inhibition entry was “Active”. Also, the result in the experiment with HeLa [2] was inactive. Further, the inhibition entry in experiment [3], in experiment [4], in experiment [5] and in experiment [6] was “inactive” throughout.
